Binding of CDR-mutated scFvs to a peptide of the spike HR2 region

Values reported by Li et al. 2023, doi:10.1038/s41467-023-39022-2 (FLAb copy).

Binding partner: SARS-CoV-2 spike HR2 peptide, sequence PDVDLGDISGINAS.

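The starting antibody came from a phage panning campaign against this peptide. The variants were designed computationally from a first round of random CDR variants and then made and measured. Several design methods are mixed in this list. The assay is AlphaSeq: two haploid yeast populations carry antibody and antigen on their surface. The frequency of each diploid, read from paired DNA barcodes, reflects how well the two displayed proteins bind. Each replicate has its own calibration line, from reference interactions of the BCL2 family. The assay was run in six technical replicates.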

The variants keep the heavy chain, the linker and the frameworks of Ab-14 (scFv order VH, three GGGGS repeats, VL).
VH: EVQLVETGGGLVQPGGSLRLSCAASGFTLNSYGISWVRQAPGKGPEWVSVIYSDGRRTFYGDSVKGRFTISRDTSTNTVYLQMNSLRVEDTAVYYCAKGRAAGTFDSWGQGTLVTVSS
VL: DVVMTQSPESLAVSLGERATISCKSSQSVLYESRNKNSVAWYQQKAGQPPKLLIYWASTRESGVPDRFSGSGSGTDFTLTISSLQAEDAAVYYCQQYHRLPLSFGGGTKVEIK

Variants are written as CDR1, CDR2 and CDR3 of the light chain (limits as in the source). Parent: KSSQSVLYESRNKNSVA, WASTRES, QQYHRLPLS. Variants here have more than six changes. Kd is apparent (estimated from mating counts) and averaged on the log scale over replicates with a signal. Smaller is tighter. A sequence measured in both rounds can read differently, since the two assays cover different ranges. In the paper, a design with two or fewer of six values counts as a poor binder. Background: pairings of all light chain designs with three empty control strains gave a value in 4% of cases (median 430 nM, 5th percentile 38 nM). Values in that range, when seen in few replicates, are hard to tell from nonspecific mating. The parent sequence was in this pool as ten entries: three were never detected, three once, and four in most replicates, with averages from 2.2 nM to 240 nM.

- HSTGSLRMDSRNKNHVA, DTTVRES, QQYMRLPLV: 540 pM (6 of 6 replicates)
- IFSQSVLMGNLAKNSVA, QASTRFS, QQYHRLPLI: 14 nM (6 of 6 replicates)
- TLTQVTMVESYNKSSVA, QASTRLE, QDYHRLPLS: 22 nM (6 of 6 replicates)
- TLSQSVDLESVHKNSIA, DLMTRES, QQYHRLPLS: 1.4 nM (6 of 6 replicates)
- KYDFSVLEESRNSNAVA, NASTREE, QDYHRLPLS: 1.8 nM (6 of 6 replicates)
- KLLQVTENMQLNRNSVA, HMSTRED, QQYHSLPLS: 3.6 nM (6 of 6 replicates)
- NITGMVEEKGTTTKNIA, EAEFRCG, QQYSRLPLS: 11 nM (6 of 6 replicates)
- YFSEQAKTDRNQQYSIA, GMDIREK, QQYGRLPLM: 86 nM (6 of 6 replicates)
- KLQWYPLEIRDPGSAVA, EAATRYN, QQYMRLPLM: 22 nM (6 of 6 replicates)
- MISDLTYYGSRNVNSVA, DLSTRGS, QQYHRLPLS: 2.1 nM (6 of 6 replicates)
- TLTQSTGMESHNKNSVA, DLSTRGS, QQYHRLPLS: 1.1 nM (6 of 6 replicates)
- KISQTFNVGTKNKNSLA, EMSTREF, QDYNRLPLS: 77 nM (6 of 6 replicates)
- QMTESDHGHQAGVGSIA, DATETME, QQYMHLPLS: 5.9 nM (6 of 6 replicates)
- KFMQSMLYESRNQNNVA, DASTRMS, QQYHRLPLS: 650 pM (6 of 6 replicates)
- IISQSVLGGYHNKNSVA, QTSERGQ, QQYDRLPLM: 14 nM (6 of 6 replicates)
- KIELGLTRYNNGYSAVA, NETQKAN, QQYSQLPLV: 37 nM (6 of 6 replicates)
- QLRDAIWAEGMNKQSIA, ENEVSKD, QQYNRLPLS: 70 nM (6 of 6 replicates)
- HMSMITLMGSKNRNSVA, QMTTREN, QQYDRLPLS: 1.2 nM (5 of 6 replicates)
- MITAAMNAYGGNRSNVA, DKEISVN, QQYHHLPLS: 24 nM (6 of 6 replicates)
- TISTSALYESTNKNSVA, ELSTRGS, QQYERLPLS: 5.7 nM (6 of 6 replicates)
- KITMYELEMRFNGSAVA, AAEVRAN, QQYWRLPLE: 61 nM (4 of 6 replicates)
- HIGDMLFGDHKIAHSIA, NTGVTSR, QQYSRLPLI: 5.6 nM (6 of 6 replicates)
- TLKMDKLPGQVNAYNVA, EAELVEN, QQYFHLPLY: 710 nM (2 of 6 replicates)
- KMNDDFQVNERNNGSVA, DAIISEA, QQYARLPLI: 2.1 nM (6 of 6 replicates)
- QLYAVQDMTSKNSSNVA, EQSTREN, QQYHRLPLS: 260 nM (4 of 6 replicates)
- TISQSTYWESFNKNNVA, QTSTRLE, QDYDRLPLS: 1.1 µM (5 of 6 replicates)
- NVRDSLGYEQNVGSAVA, ETSQVED, QQYYTLPLA: 28 nM (6 of 6 replicates)
- MLGATVEGEMRARNSVA, HNSMREN, QQYDRLPLA: 180 nM (4 of 6 replicates)
- TLTQSVGMESHNKNNVA, DLSTRGS, QQYHRLPLS: 690 pM (6 of 6 replicates)
- KFSMLHWYESRNKNSVA, EASTREQ, QQYHRLPLS: 1.6 nM (6 of 6 replicates)
- KLSQSVNMTGKNKNSVA, ELSFREK, QQYERLPLA: 3.2 nM (2 of 6 replicates)
- KLGSMVLLEHGNVNSIA, QQSTREE, QQYDRLPLS: 59 nM (6 of 6 replicates)
- MISNVMNTLTRQGNNVA, DLAERED, QQYFRLPLS: 3.1 nM (6 of 6 replicates)
- KLMGSMLYEQRMKNSVA, NASQRMS, QQYHRLPLS: 5.7 nM (6 of 6 replicates)

Excerpt, the first 3 entries:

* HSTGSLRMDSRNKNHVA, DTTVRES, QQYMRLPLV = 540 pM (6 of 6 replicates)
* IFSQSVLMGNLAKNSVA, QASTRFS, QQYHRLPLI = 14 nM (6 of 6 replicates)
* TLTQVTMVESYNKSSVA, QASTRLE, QDYHRLPLS = 22 nM (6 of 6 replicates)